Literature values as cited in patent US10898570B2, “Combination therapy with an anti-HER2 antibody-drug conjugate and a Bcl-2 inhibitor” (Genentech, Inc., priority 2015, dated 2021).
Like-named read-outs stand apart in the source and are kept apart here.

Legend:
[1] = tested on: HER2-positive advanced breast cancer; conditions: 3.6 mg/kg q3w, compared to lapatinib plus capecitabine; cited from earlier work
[2] = cited from earlier work

Q: With trastuzumab-MCC-DM1 [T-DM1] as the substance, how does the toxicity [1] read?
A: less toxicity

Q: What about the tolerability ([2]; 3.6 mg/kg q3w) of the same substance?
A: well tolerated

Q: And the “maximum tolerated dose (MTD)” value ([2]; IV infusion every 3 weeks (q3w))?
A: 3.6 mg/kg

Q: And the “DLT (Dose-Limiting Toxicity)” value ([2]; patients treated at 4.8 mg/kg)?
A: transient thrombocytopenia

Q: What about the tolerability ([2]; weekly dosing with 2.4 mg/kg) of the same substance?
A: well tolerated
